For this test, the target named is T1, non-recombinant (full-length) ecdysone receptor in L. cuprina embryo extracts (Lucilia cuprina, UniProt O18531).
T1 construct: identical to that for the non-recombinant (full-length) ecdysone receptor; from tissue; host or cells: Lucilia cuprina embryo extracts
T1 sequence (O18531 1-757): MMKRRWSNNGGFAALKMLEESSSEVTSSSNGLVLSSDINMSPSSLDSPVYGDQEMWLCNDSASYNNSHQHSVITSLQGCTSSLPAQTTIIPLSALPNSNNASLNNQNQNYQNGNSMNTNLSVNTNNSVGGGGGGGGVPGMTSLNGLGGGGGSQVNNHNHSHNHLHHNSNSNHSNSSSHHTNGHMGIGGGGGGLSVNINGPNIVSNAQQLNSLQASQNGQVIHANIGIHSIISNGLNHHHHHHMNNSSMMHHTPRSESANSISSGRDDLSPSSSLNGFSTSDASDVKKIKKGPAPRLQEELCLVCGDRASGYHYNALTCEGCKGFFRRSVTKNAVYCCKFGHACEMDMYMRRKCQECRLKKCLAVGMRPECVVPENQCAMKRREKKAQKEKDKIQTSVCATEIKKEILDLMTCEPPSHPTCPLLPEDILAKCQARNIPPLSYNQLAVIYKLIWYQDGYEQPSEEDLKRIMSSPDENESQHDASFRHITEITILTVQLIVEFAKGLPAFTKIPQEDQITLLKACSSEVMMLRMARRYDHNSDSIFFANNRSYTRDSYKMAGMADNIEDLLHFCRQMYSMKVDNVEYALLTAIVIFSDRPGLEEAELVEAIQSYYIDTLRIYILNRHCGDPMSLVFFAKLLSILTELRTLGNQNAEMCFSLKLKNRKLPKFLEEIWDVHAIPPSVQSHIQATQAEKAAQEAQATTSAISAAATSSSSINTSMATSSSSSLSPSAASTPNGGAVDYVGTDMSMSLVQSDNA
Description: equilibrium binding of [3H]ponasterone A, L. cuprina embryo extracts. The protocol: For each recombinant receptor LBD heterodimer, equilibrium binding experiments were performed in which different concentrations of [^3H]ponasterone A (typically 0.1-4.0 nM bindable radioligand) were incubated with a low fixed concentration of the LBD heterodimer, and receptor-radioligand binding was determined essentially as described below (viz. the manual procedure for MpLBD in ‘METHODS—Testing fluorescent and reference ecdysteroids as ligands using a radioligand-based assay’, performed in a total volume of 154 μl but with no competitor ligand present). Since the condition [[3H]ponA]bound<[[3H]ponA]total/10 was observed, ligand depletion was avoided and plots of bound vs. free [3H]ponasterone A concentrations were able to be fitted directly to the Langmuir isotherm (Hulme & Birdsall, 1992) [[3H]ponA]bound=[[3H]ponA]free−[LBD]tot/([Kd+[[3H]ponA]free) where [[3H]ponA]total is the total concentration of bindable [^3H]ponasterone A in the assay, [[^3H]ponA]free is the concentration of free bindable [^3H]ponasterone A in the assay, [[3H]ponA]bound is the concentration of bound [^3H]ponasterone A, [LBD]tot is the total concentration of functional recombinant receptor LBD heterodimer, and Kd is the dissociation constant for [^3H]ponasterone A with that receptor under the conditions of the assay. […]

One substance from patent US20070292967A1, “Assay for Ligands of the Ecdysone Receptor” (COMMONWEALTH SCIENTIFIC AND INDUSTRIAL RESEARCH OR, priority 2003, published 2007) can be followed below.

A word on the Kd: it is the concentration at which binding is half-saturated.

With “[24,25,26,27-^3H(N)]ponasterone A [[^3H]ponasterone A]”, the Kd worked out at 0.92 ± 0.1 nM.
